The values below come from PubChem BioAssay (NCI).

Some test systems named below: HCT-15 colon; HT29 colon; SNB-75 CNS; SNB-19 CNS; U251 CNS; PC-3 prostate; SK-MEL-5 melanoma; UACC-62 melanoma; LOX IMVI melanoma; SK-MEL-28 melanoma.
Common to all, as to test: NCI-60 one-dose screen, 48 h (100 = growth as untreated, 0 = no growth, -100 = all killed)
Holding throughout (settings): 10 µM

Values joined by “and” are separate entries in the source; they are usually repeats but may differ in a detail not shown here. Identical values can stand only once. The list shows a part of the results, in another mix than the full data.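 Interpretation: 100, growth as untreated; towards 0, rising growth inhibition; 0, no net growth; 0 to -100, cell death. Compounds scoring below 10 were considered active.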 Active and inactive are the calls of the source.

Take `COc1ccc(C(O)(C(=O)OCCN2CCCCC2)c2ccc(OC)cc2)cc1`: the growth in the experiment with HCT-15 colon was inactive: 97.1%; in the experiment with HT29 colon it was inactive: 111%; in the experiment with SNB-75 CNS, inactive: 98.8%; with SNB-19 CNS, inactive: 103%; in the experiment on U251 CNS, inactive: 96.3%; in the experiment with PC-3 prostate it was inactive: 95%. The growth in the experiment with SK-MEL-5 melanoma is inactive: 97.9%; in the experiment with UACC-62 melanoma, inactive: 97.9%; with LOX IMVI melanoma, inactive: 95.8%; in the experiment on SK-MEL-28 melanoma it was inactive: 106%.

Consider `Nc1cc([N+](=O)[O-])cc([N+](=O)[O-])c1O`, for which the growth is inactive: 98.3% and inactive: 99.6% with HCT-15 colon; inactive: 107% and inactive: 99.3% in the experiment with HT29 colon; inactive: 94.4% and inactive: 88% with SNB-75 CNS; inactive: 88.3% and inactive: 108% in the experiment on SNB-19 CNS; inactive: 100% and inactive: 97.7% with U251 CNS; inactive: 100% and inactive: 79.4% with PC-3 prostate. Also, the growth was inactive: 111% and inactive: 97.2% with SK-MEL-5 melanoma; inactive: 96.5% and inactive: 105% in the experiment on UACC-62 melanoma; inactive: 99.6% and inactive: 97.2% with LOX IMVI melanoma; inactive: 108% and inactive: 110% in the experiment with SK-MEL-28 melanoma.

`COc1ccccc1-c1ccccn1.O=[N+]([O-])c1cc([N+](=O)[O-])c(O)c([N+](=O)[O-])c1`: the growth in the experiment on HCT-15 colon was inactive: 103%; with HT29 colon, inactive: 102%; in the experiment with SNB-75 CNS, inactive: 102%; in the experiment on SNB-19 CNS, inactive: 100%; in the experiment on U251 CNS, inactive: 102%; in the experiment with PC-3 prostate, inactive: 95.6%. For the same molecule, the growth in the experiment with SK-MEL-5 melanoma is inactive: 99.3%; with UACC-62 melanoma, inactive: 105%; in the experiment with LOX IMVI melanoma, inactive: 108%; in the experiment on SK-MEL-28 melanoma it was inactive: 102%.

In the case of `O=C1C(O)=C([N+](=O)[O-])C(=O)C(O)=C1[N+](=O)[O-]`, the growth with HCT-15 colon is inactive: 100%; in the experiment on HT29 colon, inactive: 106%; in the experiment on SNB-75 CNS it was inactive: 102%; in the experiment with SNB-19 CNS, inactive: 108%; with U251 CNS, inactive: 109%; in the experiment with PC-3 prostate it was inactive: 98.8%. Further, the growth is inactive: 106% in the experiment on SK-MEL-5 melanoma, inactive: 95.3% with UACC-62 melanoma, inactive: 101% in the experiment on LOX IMVI melanoma and inactive: 111% in the experiment on SK-MEL-28 melanoma.

As to `Nc1cc([As](Cl)Cl)cc(N)c1O`, the growth is inactive: 69.5% in the experiment with HCT-15 colon; inactive: 67.3% in the experiment with HT29 colon; inactive: 75.1% in the experiment with SNB-75 CNS; inactive: 99.2% in the experiment on SNB-19 CNS; inactive: 11.9% in the experiment with U251 CNS; inactive: 74.9% with PC-3 prostate. The growth was inactive: 72.8% in the experiment on SK-MEL-5 melanoma, inactive: 71.7% in the experiment on UACC-62 melanoma, inactive: 63.1% in the experiment on LOX IMVI melanoma and inactive: 85.5% in the experiment on SK-MEL-28 melanoma.

In the case of `Cc1c([N+](=O)[O-])cc([N+](=O)[O-])c(Br)c1[N+](=O)[O-]`, the growth was active: -35.4% with HCT-15 colon; active: -46.9% in the experiment with HT29 colon; inactive: 86.1% in the experiment on SNB-75 CNS; inactive: 88.9% with SNB-19 CNS; active: -2.38% in the experiment with U251 CNS; inactive: 90% with PC-3 prostate. The growth in the experiment on SK-MEL-5 melanoma is inactive: 96.1%; in the experiment with UACC-62 melanoma it was inactive: 88.6%; with LOX IMVI melanoma, inactive: 48.8%; in the experiment on SK-MEL-28 melanoma, inactive: 106%.

As to `Nc1cccc(Cl)c1.O=[N+]([O-])c1cc([N+](=O)[O-])c(O)c([N+](=O)[O-])c1`, the growth in the experiment with HCT-15 colon was inactive: 97.4%; in the experiment on HT29 colon, inactive: 100%; in the experiment on SNB-75 CNS, inactive: 138%; with SNB-19 CNS it was inactive: 90.6%; with U251 CNS, inactive: 104%; with PC-3 prostate it was inactive: 85.5%. Moreover, the growth in the experiment on SK-MEL-5 melanoma is inactive: 98.8%; with UACC-62 melanoma, inactive: 93.5%; with LOX IMVI melanoma, inactive: 88.1%; in the experiment on SK-MEL-28 melanoma, inactive: 99.9%.

With `CCCOP(=S)(Cl)OCCC`, the growth in the experiment on HCT-15 colon was inactive: 99.3%; with HT29 colon, inactive: 106%; in the experiment with SNB-75 CNS it was inactive: 85.2%; in the experiment on SNB-19 CNS, inactive: 99.3%; in the experiment on U251 CNS, inactive: 98%; in the experiment on PC-3 prostate it was inactive: 94.4%. Also, the growth was inactive: 102% in the experiment with SK-MEL-5 melanoma, inactive: 96.1% in the experiment with UACC-62 melanoma, inactive: 97% with LOX IMVI melanoma and inactive: 109% in the experiment on SK-MEL-28 melanoma.

For the molecule `CCN(CC)CCOC(=O)C(O)(c1ccccc1)c1cc(C)cc(C)c1C` (stereo not given), the growth was inactive: 103% with HCT-15 colon; inactive: 94.1% in the experiment on HT29 colon; inactive: 73.1% with SNB-75 CNS; inactive: 98.4% in the experiment with SNB-19 CNS; inactive: 95.5% in the experiment on U251 CNS; inactive: 98.1% with PC-3 prostate. Also, the growth with SK-MEL-5 melanoma was inactive: 106%; in the experiment with UACC-62 melanoma, inactive: 96.7%; with LOX IMVI melanoma, inactive: 93.7%; in the experiment on SK-MEL-28 melanoma, inactive: 104%.

For the molecule `CC(C)N(CCCl)C(C)C`, the growth is inactive: 107% in the experiment with HCT-15 colon; inactive: 116% in the experiment with HT29 colon; inactive: 107% with SNB-75 CNS; inactive: 110% in the experiment on SNB-19 CNS; inactive: 91.3% in the experiment with U251 CNS; inactive: 96% with PC-3 prostate. The growth was inactive: 102% in the experiment on SK-MEL-5 melanoma, inactive: 104% in the experiment on UACC-62 melanoma, inactive: 93.1% in the experiment with LOX IMVI melanoma and inactive: 116% with SK-MEL-28 melanoma.

In the case of `CCN(CC)CCOC(=O)C(O)(c1ccccc1)c1cc(C)c(C)c(C)c1C` (stereo not given), the growth with HCT-15 colon is inactive: 96.7%; in the experiment on HT29 colon, inactive: 79.9%; in the experiment on SNB-75 CNS, inactive: 45.5%; in the experiment with SNB-19 CNS it was inactive: 99.6%; in the experiment on U251 CNS it was inactive: 102%; in the experiment with PC-3 prostate it was inactive: 82.1%. Also, the growth in the experiment on SK-MEL-5 melanoma is inactive: 98.4%; in the experiment with UACC-62 melanoma it was inactive: 98.3%; with LOX IMVI melanoma, inactive: 87.9%; with SK-MEL-28 melanoma, inactive: 108%.

For the molecule `CN1CCN(CCOC(=O)C(O)(c2ccccc2)c2ccccc2)CC1`, the growth is inactive: 105% in the experiment on HCT-15 colon; inactive: 104% in the experiment on HT29 colon; inactive: 97.9% in the experiment on SNB-75 CNS; inactive: 95.8% in the experiment with SNB-19 CNS; inactive: 106% with U251 CNS; inactive: 97.9% in the experiment on PC-3 prostate. For the same molecule, the growth was inactive: 95.7% in the experiment with SK-MEL-5 melanoma, inactive: 95.3% in the experiment on UACC-62 melanoma, inactive: 94.6% with LOX IMVI melanoma and inactive: 95.9% in the experiment with SK-MEL-28 melanoma.

Consider `CN(Cc1cccnc1)C(=O)COc1ccc(Cl)c(Cl)c1.O=[N+]([O-])c1cc([N+](=O)[O-])c(O)c([N+](=O)[O-])c1`, for which the growth was inactive: 110% in the experiment with HCT-15 colon; inactive: 105% in the experiment on HT29 colon; inactive: 80.5% in the experiment on SNB-75 CNS; inactive: 95.6% in the experiment with SNB-19 CNS; inactive: 94% in the experiment with U251 CNS; inactive: 93.5% with PC-3 prostate. The growth is inactive: 99.4% in the experiment on SK-MEL-5 melanoma, inactive: 103% with UACC-62 melanoma, inactive: 102% in the experiment on LOX IMVI melanoma and inactive: 110% in the experiment with SK-MEL-28 melanoma.
